Test results: PubChem BioAssay AID2524 (Sanford-Burnham Center for Chemical Genomics, 2010)
Only a part is listed here, and it is no random draw. Some structures show a salt or complex split into parts, the way the source records it. Calls of active or inactive are those of the source.

Sequences of proteins named here, by UniProt entry; tags and fusion partners are left off.
UniProt P09923, whole entry: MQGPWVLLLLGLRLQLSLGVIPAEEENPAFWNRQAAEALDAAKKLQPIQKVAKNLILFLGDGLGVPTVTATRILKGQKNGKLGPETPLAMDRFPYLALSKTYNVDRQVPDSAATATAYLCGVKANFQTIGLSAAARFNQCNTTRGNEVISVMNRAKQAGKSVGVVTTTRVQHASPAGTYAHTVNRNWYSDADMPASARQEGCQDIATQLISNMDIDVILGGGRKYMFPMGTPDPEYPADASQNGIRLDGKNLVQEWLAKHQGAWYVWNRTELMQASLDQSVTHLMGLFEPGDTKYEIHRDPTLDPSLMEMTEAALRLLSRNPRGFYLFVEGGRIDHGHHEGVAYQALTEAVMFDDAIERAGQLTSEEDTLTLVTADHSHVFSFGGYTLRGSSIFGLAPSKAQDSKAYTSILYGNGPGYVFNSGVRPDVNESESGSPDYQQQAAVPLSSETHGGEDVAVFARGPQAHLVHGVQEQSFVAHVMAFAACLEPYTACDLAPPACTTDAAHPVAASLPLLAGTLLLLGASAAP

What follows are compounds tested against Intestinal-type alkaline phosphatase (Homo sapiens) (UniProt P09923) (assay: enzymatic activation of intestinal alkaline phosphatase – biochemical, luminescence, uHTS, primary screen (AID 2524)). Details: purified human IAP, CDP-Star luminescence, 30 min; at 10 µM; active compounds read high; 1 = vehicle-only enzyme, 0 = enzyme-free background.

Row | SMILES | activation factor
1 | CP(=O)(Nc1ccccc1F)Oc1ccccc1 (configuration not stated) | inactive: 0.839
2 | CC(C)c1ccc(OP(C)(=O)Nc2ccc(SC(F)(F)F)cc2)cc1 (configuration not stated) | inactive: 1.15
3 | COc1ccc2c(c1O)-c1c(O)c(OC)cc3c1[C@H](C2)[N+](C)(C)CC3.O=[N+]([O-])c1cc([N+](=O)[O-])c([O-])c([N+](=O)[O-])c1[O-] | inactive: 0.844
4 | O=C(OC1CN2CCC1CC2)c1ccc([N+](=O)[O-])cc1 (configuration not stated) | inactive: 1.19
5 | O=C(OCCN1CCN(CCOCc2ccccc2)CC1)C(O)(c1ccccc1)c1ccccc1 | inactive: 1.08
6 | CCOC(=O)c1ccc(NP(C)(=O)Oc2ccc(F)cc2)cc1 (configuration not stated) | inactive: 0.933
7 | COc1ccc(OP(C)(=O)Nc2ccc(SC(F)(F)F)cc2)cc1 (configuration not stated) | inactive: 1.04
8 | CP(=O)(Nc1ccccc1)Oc1ccc(F)cc1 (configuration not stated) | inactive: 0.974
9 | CCCCCOc1ccc(NP(C)(=O)Oc2ccc(Cl)cc2Cl)cc1 (configuration not stated) | inactive: 1.18
10 | O=[N+]([O-])c1cc([N+](=O)[O-])c(OC2CCCCC2O)c([N+](=O)[O-])c1 (configuration not stated) | inactive: 0.999
11 | CCN(CC)CCCOC(=O)C(O)(c1ccccc1)C1CCCCC1 (configuration not stated) | inactive: 1
12 | CN(C)CCOC(=O)C(O)(c1ccccc1)C1CCCCC1 (configuration not stated) | inactive: 1
13 | COc1ccc(NP(C)(=O)Oc2ccccc2OC)cc1 (configuration not stated) | inactive: 1.14
14 | COc1ccc(OP(C)(=O)Nc2cccc(Br)c2)cc1 (configuration not stated) | inactive: 1.03
15 | O=[N+]([O-])c1cc([N+](=O)[O-])c(NCC2CCS(=O)(=O)C2)c([N+](=O)[O-])c1 (configuration not stated) | inactive: 1.15
16 | CCOP(C)(=S)SCC(=O)NC(C)(CC)C(=O)O (configuration not stated) | inactive: 0.962
17 | CP(=O)(Nc1ccc(SC(F)(F)F)cc1)Oc1ccc(F)cc1 (configuration not stated) | inactive: 0.982
18 | Cc1ccccc1NP(C)(=O)Nc1ccccc1C | inactive: 1.21
19 | CP(=O)(Nc1ccc2c(c1)OCCO2)Oc1ccccc1 (configuration not stated) | inactive: 1.03
20 | COc1ccccc1OP(C)(=O)Nc1c(C)n(C)n(-c2ccccc2)c1=O (configuration not stated) | inactive: 0.974
21 | O=C(OCCCN1CCCC1)C(O)(c1ccccc1)C1CCCCC1 (configuration not stated) | inactive: 0.941
22 | CP(=O)(Oc1ccccc1)N1CCOC1=O (configuration not stated) | inactive: 1.05

Row | SMILES | activation factor
23 | CCc1ccc(OP(C)(=O)Nc2cccnc2)cc1 (configuration not stated) | inactive: 1.02
24 | CCN(CC)CC(O)COC(=O)C(O)(c1ccccc1)C1CCCCC1 (configuration not stated) | inactive: 0.829
25 | COc1ccc(OP(C)(=O)Nc2ccc(Br)cc2)cc1 (configuration not stated) | active: 2.14
26 | CN(C)C(=O)c1c([N+](=O)[O-])cc([N+](=O)[O-])cc1[N+](=O)[O-] | inactive: 1.02
27 | CC(C)(C)c1ccc(OP(C)(=O)O)cc1 | inactive: 0.867
28 | COc1ccccc1OP(C)(=O)Nc1ccccc1Br (configuration not stated) | inactive: 0.958
29 | CP(=O)(Nc1ccc(Cl)cc1)Oc1ccc(F)cc1 (configuration not stated) | inactive: 0.871
30 | CCOC(=O)c1ccc(NP(C)(=O)Oc2ccc(Cl)cc2)cc1 (configuration not stated) | inactive: 0.998
31 | CP(=O)(OC12CC3CC(CC(C3)C1)C2)OC12CC3CC(CC(C3)C1)C2 | inactive: 1.16
32 | Nc1ccc2c(ccc3cccnc32)n1.O=[N+]([O-])c1cc([N+](=O)[O-])c(O)c([N+](=O)[O-])c1 | inactive: 0.871
33 | COc1ccccc1OP(C)(=O)Nc1ccc(C)c(C)c1 (configuration not stated) | inactive: 1
34 | COc1ccc(OP(C)(=O)Nc2ccccc2Br)cc1 (configuration not stated) | inactive: 0.992
35 | Cc1cc(C)cc(OP(C)(=O)Nc2cccc(C(F)(F)F)c2)c1 (configuration not stated) | inactive: 0.947
36 | CP(=O)(OCCOc1ccccc1)OCCOc1ccccc1 | inactive: 0.891
37 | CP(=O)(Nc1ccc(Cl)cc1Cl)Oc1ccccc1 (configuration not stated) | inactive: 1
38 | Cc1nc2ccc3ccccc3c2o1.O=[N+]([O-])c1cc([N+](=O)[O-])c(O)c([N+](=O)[O-])c1 | inactive: 1.03
39 | COc1ccc(OP(C)(=O)Nc2ccccn2)cc1 (configuration not stated) | inactive: 0.853
40 | CN(C)CCOC(=O)C(O)(c1ccccc1)C1CCCC1 (configuration not stated) | inactive: 1.22
41 | COc1ccccc1OP(C)(=O)Nc1ccc(Br)cc1 (configuration not stated) | inactive: 1.05
42 | CP(=O)(Nc1ccccn1)Oc1ccccc1 (configuration not stated) | inactive: 1.02
43 | COc1ccccc1OP(C)(=O)Nc1ccc(C)cc1C (configuration not stated) | inactive: 1.09
44 | CCc1ccc(OP(C)(=O)O)cc1 | inactive: 1.05

Row | SMILES | activation factor
45 | O=[N+]([O-])c1cc([N+](=O)[O-])c(Nc2ccccn2)c([N+](=O)[O-])c1 | inactive: 0.701
46 | Cc1c(NP(C)(=O)Oc2ccc(C(C)C)cc2)c(=O)n(-c2ccccc2)n1C (configuration not stated) | inactive: 1.06
47 | CCN(CC)CCCOC(=O)C(O)(c1ccccc1)c1ccccc1 | inactive: 1.03
48 | CC(C)(C)c1ccc(OP(C)(=O)Nc2ccc(SC(F)(F)F)cc2)cc1 (configuration not stated) | inactive: 1.03
49 | Cc1cccc(C)c1OP(C)(N)=O (configuration not stated) | inactive: 1.05
50 | O=[N+]([O-])c1cc([N+](=O)[O-])c(Nc2cccnc2)c([N+](=O)[O-])c1 | inactive: 0.743
51 | Cc1cc(C)cc(OP(C)(N)=O)c1 (configuration not stated) | inactive: 1.3
52 | COc1ccccc1OP(C)(=O)Nc1cc(Cl)ccc1C (configuration not stated) | inactive: 1.09
53 | COc1ccc(OP(C)(=O)Nc2cccc(F)c2)cc1 (configuration not stated) | inactive: 0.99
54 | COc1ccccc1OP(C)(=O)Nc1ccc(C)cc1 (configuration not stated) | inactive: 1.01
55 | Cc1ccc(NP(C)(=O)Oc2ccccc2)c(C)c1 (configuration not stated) | inactive: 0.962
56 | CCOC(=O)c1ccc(NP(C)(=O)Oc2ccccc2)cc1 (configuration not stated) | inactive: 0.951
57 | CP(=O)(Nc1ccccc1Br)Oc1ccccc1 (configuration not stated) | inactive: 0.912
58 | COc1ccccc1OP(C)(=O)Nc1ccccc1 (configuration not stated) | inactive: 1.14
59 | CP(=S)(Nn1cnnc1)Oc1ccccc1 (configuration not stated) | inactive: 0.899
60 | CCc1ccc(OP(C)(=O)N2CCN(c3ccc([N+](=O)[O-])cc3)CC2)cc1 (configuration not stated) | inactive: 0.978
61 | CP(=O)(NC(=O)Nc1ccccc1)Oc1ccccc1 (configuration not stated) | inactive: 1.11
62 | Cc1cc(C)cc(OP(C)(=O)Nc2ccc(SC(F)(F)F)cc2)c1 (configuration not stated) | inactive: 0.854
63 | CP(=O)(Nc1ccc(SC(F)(F)F)cc1)Oc1ccc(Cl)cc1 (configuration not stated) | inactive: 1.08
64 | Cc1cccc(C)c1OP(C)(=O)Nc1ccc(SC(F)(F)F)cc1 (configuration not stated) | inactive: 0.947
65 | CP(=O)(Oc1ccccc1)OC(c1ccccc1)C(F)(F)F (configuration not stated) | inactive: 0.968
66 | CP(=O)(Nc1ccccn1)Oc1ccc(Cl)cc1 (configuration not stated) | inactive: 1.13

Row | SMILES | activation factor
67 | O=[N+]([O-])c1cc([N+](=O)[O-])c(O)c([N+](=O)[O-])c1.c1ccc(Oc2ccncc2)cc1 | inactive: 1.08
68 | CCOC(=O)c1ccc(NP(C)(=O)Oc2ccc(OC)cc2)cc1 (configuration not stated) | inactive: 1.08
69 | CCOP(C)(=S)SCC(=O)NC(C)C(=O)O (configuration not stated) | inactive: 1.09
70 | O=[N+]([O-])c1cc([N+](=O)[O-])c(-n2nnc3ccccc32)c([N+](=O)[O-])c1 | inactive: 0.934
71 | Cc1nc2ccc3ccccc3c2s1.O=[N+]([O-])c1cc([N+](=O)[O-])c(O)c([N+](=O)[O-])c1 | inactive: 0.992
72 | O=[N+]([O-])c1cc([N+](=O)[O-])c(-c2cnn(-c3ccccc3)c2)c([N+](=O)[O-])c1 | inactive: 0.919
73 | O=[N+]([O-])c1cc([N+](=O)[O-])c(Nc2nnnn2CCO)c([N+](=O)[O-])c1 | inactive: 0.77
74 | CC1=C2N=C(C=C3N=C(C(C)=C4[N-][C@@](C)([C@@H]5N=C1[C@](C)(CCC(=O)NC[C@@H](C)OP(=O)([O-])O[C@H]1[C@@H](O)[C@@H](n6cnc7cc(C)c(C)cc76)O[C@@H]1CO)[C@H]5CC(N)=O)[C@@](C)(CC(N)=O)[C@@H]4CCC(N)=O)[C@@](C)(CC(N)=O)[C@@H]3CCC(N)=O)C(C)(C)[C@@H]2CCC(N)=O.[C-]#N.[Co+3] | inactive: 0.798
75 | CCOC(=O)C(CC)C1=NC(C)(C)Cc2ccccc21.O=[N+]([O-])c1cc([N+](=O)[O-])c(O)c([N+](=O)[O-])c1 (configuration not stated) | inactive: 0.902
76 | CP(=O)(Nc1ccc(SC(F)(F)F)cc1)Oc1ccccc1 (configuration not stated) | inactive: 0.866
77 | CCCOc1ccc(NP(C)(=O)Oc2ccc(Cl)cc2)cc1 (configuration not stated) | inactive: 0.982
78 | CN1CCCCC1COC(=O)C1(O)c2ccccc2CCc2ccccc21 (configuration not stated) | inactive: 1.7
79 | COc1ccccc1OP(C)(=O)Nc1c(C)cccc1C (configuration not stated) | inactive: 1.03
80 | O=C(O)c1cccc(Nc2c([N+](=O)[O-])cc([N+](=O)[O-])cc2[N+](=O)[O-])c1 | inactive: 0.847
81 | CC1=NCCc2c1[nH]c1ccccc21.O=[N+]([O-])c1cc([N+](=O)[O-])c(O)c([N+](=O)[O-])c1 | inactive: 0.869
82 | CCOC(=O)c1ccc(NP(C)(=O)Oc2cc(C)cc(C)c2)cc1 (configuration not stated) | inactive: 0.96
83 | Cc1cc(C)cc(OP(C)(=O)Nc2ccc(C)cc2C)c1 (configuration not stated) | inactive: 1.09
84 | COc1ccccc1OP(C)(=O)Nc1cccc(Br)c1 (configuration not stated) | inactive: 0.879
85 | Cc1ccc(C)c(NP(C)(=O)Oc2ccccc2)c1 (configuration not stated) | inactive: 1.07
86 | CP(=O)(Nc1cccc(Br)c1)Oc1ccccc1 (configuration not stated) | inactive: 0.897
87 | Cc1cc(C)cc(OP(C)(=O)Nc2ccccn2)c1 (configuration not stated) | inactive: 0.927
